Experimental findings from patent publication US12264158B2, “Protein kinase MKK4 inhibitors for promoting liver regeneration or reducing or preventing hepatocyte death” (HEPAREGENIX GMBH, priority 2018, dated 2025) are described below.

One test concerns the target T1, MKK4-MEKK2 mix (Homo sapiens, UniProt P45985).
T1 construct: MEKK2, recombinant, active: ProQinase product #0583-0000-1
T1 sequence (P45985 2-399): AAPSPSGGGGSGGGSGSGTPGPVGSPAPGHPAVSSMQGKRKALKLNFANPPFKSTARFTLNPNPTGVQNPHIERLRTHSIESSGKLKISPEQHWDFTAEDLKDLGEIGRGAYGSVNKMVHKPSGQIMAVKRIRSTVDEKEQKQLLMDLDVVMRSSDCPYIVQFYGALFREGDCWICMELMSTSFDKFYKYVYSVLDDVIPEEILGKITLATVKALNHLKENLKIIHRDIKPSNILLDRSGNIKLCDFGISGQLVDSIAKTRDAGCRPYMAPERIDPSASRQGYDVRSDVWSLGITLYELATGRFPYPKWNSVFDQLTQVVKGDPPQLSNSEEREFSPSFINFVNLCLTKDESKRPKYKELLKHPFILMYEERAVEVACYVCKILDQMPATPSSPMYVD
In words: Radiometric protein kinase assay, MEKK2 dependent MKK4 activation (cascade). The note with it: substrate JNK1 KRKR, ATP 0.2 μM, read-out: Cascade, potency derived from IC50-values. The format is biochemical. The procedure: The activation step is done in 50 mM HEPES pH 7.5, 50 mM NaCl, 3.8 mM MgCl2, 2.5 mM DTT, 10% (v/v) glycerol. Final DMSO concentration is 1%. The activation mixture is pipetted in the following order • 2.5 μl compound in 4% DMSO • 2.5 μl ATP/MgCl2 mix • 5 μl premixed kinase solution MKK4:MEKK2 10:1 (w/w)
Protein concentrations in the activation mix are 1 μM MKK4 and 50 nM MEKK2.
(§1) A radiometric protein kinase assay was used for measuring the kinase activity of the respective protein kinases. All kinase assays were performed in 96-well polypropylene plates. After the reactions were stopped, the assay mixtures were transferred to 96-well MSFC filter-plates (Millipore). The reaction mix was passed through the filter membrane by aspiration, the membrane was washed 3 times with 150 mM H3PO4, once with ethanol, dried and liquid scintillation cocktail was added. Radioactivity was determined by counting of the samples in a Microbeta multiwell scintillation counter (Wallac).

For another test, the target named is T2, MKK4 active (Homo sapiens, UniProt P45985).
T2 construct: purchased ProQinase #0948-0000-1
T2 sequence (P45985 1-399): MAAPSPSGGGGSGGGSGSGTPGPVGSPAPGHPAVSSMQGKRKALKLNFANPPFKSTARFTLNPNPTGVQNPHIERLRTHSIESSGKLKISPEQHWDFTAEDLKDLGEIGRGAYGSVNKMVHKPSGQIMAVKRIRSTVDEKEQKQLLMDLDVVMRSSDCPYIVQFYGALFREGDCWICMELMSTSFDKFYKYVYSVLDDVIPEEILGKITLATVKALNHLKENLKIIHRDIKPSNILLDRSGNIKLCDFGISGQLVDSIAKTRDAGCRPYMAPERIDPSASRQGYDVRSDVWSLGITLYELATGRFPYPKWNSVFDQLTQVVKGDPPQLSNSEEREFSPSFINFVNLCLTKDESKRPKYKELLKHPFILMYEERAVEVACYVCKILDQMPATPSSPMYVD
In words: Radiometric protein kinase assay, MKK4 active. The test is classed as biochemical. Here is the method: as §1

A further test deals with T3, MKK7 (Homo sapiens, UniProt O14733).
T3 construct: M1/R419; host or cells: HEK-293
T3 sequence (O14733 1-419): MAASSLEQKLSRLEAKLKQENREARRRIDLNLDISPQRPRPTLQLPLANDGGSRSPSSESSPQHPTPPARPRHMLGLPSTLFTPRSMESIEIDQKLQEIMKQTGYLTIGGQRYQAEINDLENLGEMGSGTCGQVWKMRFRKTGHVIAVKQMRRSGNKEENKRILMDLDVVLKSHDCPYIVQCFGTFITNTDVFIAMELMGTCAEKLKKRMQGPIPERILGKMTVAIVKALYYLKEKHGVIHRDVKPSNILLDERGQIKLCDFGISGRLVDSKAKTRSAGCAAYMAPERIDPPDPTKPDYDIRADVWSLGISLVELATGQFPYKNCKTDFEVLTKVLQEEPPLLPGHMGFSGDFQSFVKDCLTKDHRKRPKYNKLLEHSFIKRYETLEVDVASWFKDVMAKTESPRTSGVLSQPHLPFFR
In words: KINOMEscan competition binding assay, selectivity against off-target MKK7. The following applies: concentration of 100 nM. Here is the method: (§2) The assay was performed by combining three components: DNA-tagged kinase; immobilized ligand; and a test compound. The ability of the test compound to compete with the immobilized ligand was measured via quantitative PCR of the DNA tag. The technology is described in detail in Fabian, M. A. et al. A small molecule-kinase interaction map for clinical kinase inhibitors. Nat. […] M. W. et al. A quantitative analysis of kinase inhibitor selectivity, Nat.
(§3) For investigation of the affinity to MKK4, MKK7 and JNK1, the kinases were produced in HEK-293 cells and subsequently tagged with DNA for qPCR detection. […] The liganded beads were blocked with excess biotin and washed with blocking buffer (SEABLOCK™ (Pierce), 1% BSA, 0.05% TWEEN®20, 1 mM DTT) to remove unbound ligand and to reduce nonspecific binding. […] All reactions were performed in polystyrene 96-well plates in a final volume of 0.135 mL. […] The kinase concentration in the eluates was measured by qPCR.
(§4) The test compounds were provided as 10 mM stock solutions. The test solutions at indicated final concentrations were prepared at DiscoverX.

The target of the next test is T4, MKK4 (Homo sapiens, UniProt P45985).
T4 construct: S84/D399; host or cells: HEK-293
T4 sequence (P45985 84-399): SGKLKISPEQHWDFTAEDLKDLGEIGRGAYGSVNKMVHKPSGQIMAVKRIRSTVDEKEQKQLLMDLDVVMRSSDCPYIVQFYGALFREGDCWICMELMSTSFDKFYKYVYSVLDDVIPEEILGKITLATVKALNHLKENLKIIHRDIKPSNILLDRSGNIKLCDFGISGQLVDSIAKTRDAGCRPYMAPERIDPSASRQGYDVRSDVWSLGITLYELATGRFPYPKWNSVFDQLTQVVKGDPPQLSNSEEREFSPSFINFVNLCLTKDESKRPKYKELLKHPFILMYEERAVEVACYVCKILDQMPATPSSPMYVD
In words: KINOMEscan competition binding assay, MKK4 potency. The note with it: concentration of 100 nM. The procedure: as §2, §3, §4

Regarding `CCCS(=O)(=O)Nc1ccc(F)c(C(=O)c2n[nH]c3ncc(-c4ccc(NS(C)(=O)=O)cc4)cc23)c1F` [Example 51g, N-(2,4-difluoro-3-(5-(4-(methylsulfonamido)phenyl)-1H-pyrazolo[3,4-b]pyridine-3-carbonyl)phenyl)propane-1-sulfonamide], the IC50 (in general, the concentration that gives 50% inhibition) on MKK4-MEKK2 mix is 1000 to 10000 nM; against MKK4 active it was 500 to 1000 nM.

Take `CS(=O)(=O)Nc1ccc(F)c(C(=O)c2n[nH]c3ncc(-c4ccc(S(N)(=O)=O)cc4)cc23)c1F` [Example 51b, 4-(3-(2,6-difluoro-3-(methylsulfonamido)benzoyl)-1H-pyrazolo[3,4-b]pyridin-5-yl) benzenesulfonamide]: the results for the IC50 at MKK4-MEKK2 mix and at MKK4 active were 1000 to 10000 nM and 500 to 1000 nM, respectively.

For the compound `CCCS(=O)(=O)Nc1ccc(F)c(C(O)c2n[nH]c3ncc(-c4ccc(Cl)cc4)cc23)c1F` (centres unmarked) [Example 49, N-(3-((5-(4-chlorophenyl)-1H-pyrazolo[3,4-b]pyridin-3-yl)(hydroxy)methyl)-2,4-difluorophenyl)propane-1-sulfonamide], the “Selectivity vs. MKK7, ratio PoC(MKK7)/PoC(MKK4)” value on MKK7 is “O (PoC(MKK7)/PoC(MKK4) < 3)”. In addition, at MKK4, the “MKK4, residual percent of control binding (PoC)” value is recorded as “O (PoC ≥ 30)”.

`CCCS(=O)(=O)Nc1ccc(F)c(C(=O)Nc2n[nH]c3ncc(-c4ccc(Cl)cc4)cc23)c1F` [Example 44, N-(5-(4-chlorophenyl)-1H-pyrazolo[3,4-b]pyridin-3-yl)-2,6-difluoro-3-(propylsulfonamido)benzamide]: the “Selectivity vs. MKK7, ratio PoC(MKK7)/PoC(MKK4)” value at MKK7 is “O (PoC(MKK7)/PoC(MKK4) < 3)”. Besides, the “MKK4, residual percent of control binding (PoC)” value on MKK4 is recorded as “O (PoC ≥ 30)”.
